{
  "sequences": {"note": "By UniProt entry, the sequences of proteins in these tests, tags left out.", "UniProt Q704Y3, whole entry": "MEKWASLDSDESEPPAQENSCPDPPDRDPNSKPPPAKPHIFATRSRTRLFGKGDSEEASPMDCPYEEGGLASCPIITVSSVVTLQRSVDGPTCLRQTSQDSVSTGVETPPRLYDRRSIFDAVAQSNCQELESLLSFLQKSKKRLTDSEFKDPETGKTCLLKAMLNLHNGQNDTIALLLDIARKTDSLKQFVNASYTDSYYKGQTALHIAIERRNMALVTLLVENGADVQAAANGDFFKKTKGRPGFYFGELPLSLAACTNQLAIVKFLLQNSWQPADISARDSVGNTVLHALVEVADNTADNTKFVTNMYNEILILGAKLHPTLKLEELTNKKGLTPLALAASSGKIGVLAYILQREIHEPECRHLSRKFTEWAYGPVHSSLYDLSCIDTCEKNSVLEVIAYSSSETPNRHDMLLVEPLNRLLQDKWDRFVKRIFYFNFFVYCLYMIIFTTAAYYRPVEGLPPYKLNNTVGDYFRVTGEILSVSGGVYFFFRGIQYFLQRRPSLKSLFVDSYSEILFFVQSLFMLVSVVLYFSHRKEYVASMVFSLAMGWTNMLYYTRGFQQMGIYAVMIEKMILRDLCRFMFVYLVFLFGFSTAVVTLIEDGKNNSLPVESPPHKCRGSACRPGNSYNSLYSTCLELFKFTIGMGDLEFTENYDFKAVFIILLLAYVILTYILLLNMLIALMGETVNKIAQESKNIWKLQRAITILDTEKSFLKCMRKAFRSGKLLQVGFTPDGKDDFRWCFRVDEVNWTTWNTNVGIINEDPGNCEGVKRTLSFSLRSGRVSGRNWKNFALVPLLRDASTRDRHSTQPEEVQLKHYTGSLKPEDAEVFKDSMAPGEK", "UniProt P16390, whole entry": "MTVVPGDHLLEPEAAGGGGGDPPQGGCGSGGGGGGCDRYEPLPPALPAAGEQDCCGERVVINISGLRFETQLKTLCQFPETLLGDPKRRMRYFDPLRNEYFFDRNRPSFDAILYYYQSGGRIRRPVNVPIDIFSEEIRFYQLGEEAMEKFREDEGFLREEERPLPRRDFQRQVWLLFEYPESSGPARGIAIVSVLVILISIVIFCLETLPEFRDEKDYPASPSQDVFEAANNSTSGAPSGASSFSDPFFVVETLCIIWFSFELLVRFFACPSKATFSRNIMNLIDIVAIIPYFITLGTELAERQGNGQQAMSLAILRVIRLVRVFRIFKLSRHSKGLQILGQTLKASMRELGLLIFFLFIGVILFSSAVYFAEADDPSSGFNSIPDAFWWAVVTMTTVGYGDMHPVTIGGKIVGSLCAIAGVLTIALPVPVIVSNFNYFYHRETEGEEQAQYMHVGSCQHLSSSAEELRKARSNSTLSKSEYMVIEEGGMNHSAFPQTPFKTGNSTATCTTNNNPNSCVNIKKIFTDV"},
  "source": "paper PMC4591660",
  "about": "(Toxins, 2015)",
  "key": {"mTRPV1": {"biological_target": "T1, mTRPV1 (Mus musculus, UniProt Q704Y3)", "T1 construct": "expressed in transfected cells; host or cells: HEK293T", "assay_type": "cell-based", "conditions": "20 °C"}, "rat Kv1.1": {"test_system": "rat Kv1.1", "conditions": "ref [9]; cited from earlier work"}, "mKv1.3 [1]": {"biological_target": "T2, mKv1.3 (Mus musculus, UniProt P16390)", "conditions": "10 µM, 20 °C"}, "[2]": {"test_system": "DRG neurons of TRPV1 KO mice", "assay_type": "cell-based, mouse", "conditions": "BmP01 300 µM, capsaicin 10 µM; * p < 0.01, n = 10"}, "human Kv1.3": {"test_system": "human Kv1.3", "conditions": "ref [9]; cited from earlier work"}, "rat hippocampal neurons": {"test_system": "rat hippocampal neurons", "conditions": "ref [36]; cited from earlier work"}, "WT mice": {"test_system": "WT mice", "assay_type": "in vivo, C57BL/6J", "conditions": "10 μL intraplantar, left hind paw, 30 min recording, n = 10"}, "mKv1.1": {"test_system": "mKv1.1", "conditions": "1 mM; 300-ms depolarizing potential of 0 mV from holding potential of −80 mV; 20 °C; pH 7.3"}, "mKv1.3 [3]": {"biological_target": "T2, mKv1.3", "assay": "cell-based"}, "TRPV1 KO mice": {"test_system": "TRPV1 KO mice", "assay_type": "in vivo", "conditions": "500 µM, 10 μL intraplantar, left hind paw; 30 min recording; n = 10; vs saline"}},
  "note": "“Also recorded” adds a separate entry of the source.",
  "data": [
    {"smiles": "CC(C)[C@@H]1NC(=O)[C@@H]2CSSC[C@@H]3NC(=O)[C@H](CC(=O)O)NC(=O)[C@H](CCC(=O)O)NC(=O)[C@@H](NC(=O)[C@@H](NC(=O)[C@H](C)N)[C@@H](C)O)CSSC[C@H](NC(=O)[C@H](CCCCN)NC(=O)[C@H](C)NC(=O)[C@H](CCCNC(=N)N)NC(=O)[C@H](C)NC(=O)[C@H](CC(N)=O)NC(=O)[C@H](CCC(N)=O)NC(=O)[C@H]([C@@H](C)O)NC(=O)[C@H](C)NC(=O)[C@H](CSSC[C@@H](C(=O)N[C@@H](CCC(=O)O)C(=O)N4CCC[C@H]4C(=O)N[C@@H](CCCCN)C(=O)O)NC1=O)NC(=O)[C@H](Cc1c[nH]cn1)NC(=O)[C@H](CCC(=O)O)NC(=O)[C@@H]1CCCN1C3=O)C(=O)N[C@@H](CC(=O)O)C(=O)N[C@@H](CC(N)=O)C(=O)N[C@@H](CC(=O)O)C(=O)N[C@@H](CCCCN)C(=O)N2", "note": "[BmP01]", "values": [
      {"measurement": "activation of mTRPV1, concentration dependence", "setting": "mTRPV1; 1 µM, 10 µM, 100 µM, 500 µM and 1 mM, HEK293T, pH 7.2", "value": "activate the mTRPV1 channel in a dose dependent manner; also recorded: increasing activity with higher concentration to activate TRPV1 currents"},
      {"measurement": "activation of TRPV1", "setting": "mTRPV1; 500 µM, HEK293T expressing mTRPV1", "value": "potently activated TRPV1; also recorded: completely activates the TRPV1 channel"},
      {"measurement": "evoked currents in TRPV1-expressed HEK293T cells, ramp method", "setting": "mTRPV1; HEK293T with over-expressed TRPV1, ramp method", "value": "evoked currents on TRPV1-expressed HEK293T cells; also recorded: BmP01-induced currents were elicited from TRPV1 channels; also recorded: evoked the currents in HEK293T cells with over-expressed TRPV1 channels"},
      {"measurement": "affinity to rat Kv1.1", "setting": "rat Kv1.1", "value": "high affinity to rat Kv1.1"},
      {"measurement": "inhibition of rat Kv1.1", "setting": "rat Kv1.1", "value": "rat Kv1.1 and human Kv1.3 channel blocker; also recorded: inhibited both rat Kv1.1 and human Kv1.3"},
      {"measurement": "inhibition of mKv1.3 currents", "setting": "mKv1.3 [1]; 300-ms depolarizing potential of 0 mV from holding potential of −80 mV, pH 7.3", "value": "inhibited the currents on mKv1.3"},
      {"measurement": "time constant of inhibition (τon)", "setting": "mKv1.3 [1]; single-exponential fit", "value": "5.04 ± 0.86", "unit": "s"},
      {"measurement": "time constant of washing (τoff)", "setting": "mKv1.3 [1]; single-exponential fit", "value": "6.22 ± 0.15", "unit": "s"},
      {"measurement": "normalized evoked currents, TRPV1 KO compared with WT DRG neurons", "setting": "[2]", "value": "significantly higher in WT than TRPV1 KO mice; also recorded: significantly lower in TRPV1 KO mice than in WT mice"},
      {"measurement": "inhibition of human Kv1.3", "setting": "human Kv1.3", "value": "rat Kv1.1 and human Kv1.3 channel blocker; also recorded: inhibited both rat Kv1.1 and human Kv1.3"},
      {"measurement": "inhibition of outward K^+ currents in rat hippocampal neurons", "setting": "rat hippocampal neurons", "value": "slightly inhibited"},
      {"measurement": "pain behavior (duration of paw licking/biting)", "setting": "WT mice; 500 µM, vs saline", "value": "induced pain in WT mice; also recorded: showed acute pain behavior similar to capsaicin; also recorded: potently induces pain in vivo in WT mice"},
      {"measurement": "pain behavior (paw licking), dose-response", "setting": "WT mice; different doses", "value": "induced acute pain in a dose dependent manner; also recorded: significant acute pain in wild type (WT) mice"},
      {"measurement": "effect on mKv1.1 currents", "setting": "mKv1.1", "value": "no significant effect on mKv1.1; also recorded: did not inhibit the mKv1.1 currents; also recorded: no significant change was observed on the mKv1.1 currents"},
      {"measurement": "EC50", "setting": "mKv1.3 [3]", "value": "269 ± 12.7", "unit": "nM"},
      {"measurement": "pain behavior (duration of paw licking/biting)", "setting": "TRPV1 KO mice", "value": "lost function to induce pain in TRPV1 KO mice; also recorded: not in TRPV1 knock-out (TRPV1 KO) mice; also recorded: did not induce pain"}
    ]}
  ]
}
